Assay: Ignition and explosive tests
Settings: for Vapor pressure: temperature 20 ° C.

## CC(=O)CC(C)C
  Flash point: 18 °C
  Ignition point: 449 °C
  Vapor pressure: 16/20 mmHg

## CCCCOC(C)=O
  Flash point: 22 °C
  Ignition point: 425 °C
  Vapor pressure: 7.8/20 mmHg

From US6645682B2, “Thinner for rinsing photoresist and method of treating photoresist layer” (dated 2003)
